Earlier results on one substance are cited in patent US20100285611A1, “PHOTOBLEACHING RESISTANT PH SENSITIVE DYE NANOREACTORS WITH DUAL WAVELENGTH EMISSION” (priority 2009, published 2010).

The conditions of this series: cited from earlier work.

As a reminder, the pKa is the pH at which an ionisable group is half protonated. As to “albumin: acidic protein, a major component of plasma (found at 3%)”, the pKa is on record as 4.7.
